For one assay, the target named is ArxX (Alkalilimnicola ehrlichii, UniProt Q0AC64). The assay is described as follows: ITC ([…] °C, pH […]).
Another assay has as its target AioX (Pseudorhizobium banfieldiae, UniProt L0NML6). Briefly: ITC ([…] °C, pH […]) and X-ray crystal structure ([…] Å).

Sequences of proteins named here, by UniProt entry; tags and fusion partners are left off. Residues count along the entry.
UniProt L0NML6, 27-304 limits assumed: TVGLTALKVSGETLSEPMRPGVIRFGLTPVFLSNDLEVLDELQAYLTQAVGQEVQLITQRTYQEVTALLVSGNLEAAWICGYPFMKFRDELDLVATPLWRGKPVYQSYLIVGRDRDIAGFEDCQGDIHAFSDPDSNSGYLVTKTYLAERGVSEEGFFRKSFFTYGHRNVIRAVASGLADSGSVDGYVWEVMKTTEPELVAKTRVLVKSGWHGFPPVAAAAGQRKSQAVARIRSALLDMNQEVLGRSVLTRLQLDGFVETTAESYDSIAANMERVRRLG

SMILES strings stand for the structures.

What is called Kd is the constant that tells how readily two partners part at equilibrium. High values mean weaker binding, low ones tighter binding. Regarding `O[As](O)O`, the values for the Kd at ArxX and at AioX were 311 nM and 177 nM, respectively.
